This test concerns the target rat α3β4 nicotinic acetylcholine receptor (rat) (UniProt P04757).

Turning to “amyloid-β peptide, 40 amino acids long (Aβ40), soluble (from UniProt P05067 672-711)”, the response of α3β4 nAChRs in HEK cells to 0.2 mM CCh plus 200 nM Aβ40 in the presence of 0.5 or 2 µM IQ, percent of control currents (IQ does not prevent the inhibition by Aβ40) (% of control currents) was determined as 70.

The values are drawn from article PMC3718777.
